For one compound, IC50 results are on record in ChEMBL document CHEMBL1149501, “Selective COX-2 inhibitors. Part 1: synthesis and biological evaluation of phenylazobenzenesulfonamides” (Bioorg Med Chem Lett, 2006).

Chains of the proteins cited; added tags and fusions are not shown.
UniProt P23219, whole entry: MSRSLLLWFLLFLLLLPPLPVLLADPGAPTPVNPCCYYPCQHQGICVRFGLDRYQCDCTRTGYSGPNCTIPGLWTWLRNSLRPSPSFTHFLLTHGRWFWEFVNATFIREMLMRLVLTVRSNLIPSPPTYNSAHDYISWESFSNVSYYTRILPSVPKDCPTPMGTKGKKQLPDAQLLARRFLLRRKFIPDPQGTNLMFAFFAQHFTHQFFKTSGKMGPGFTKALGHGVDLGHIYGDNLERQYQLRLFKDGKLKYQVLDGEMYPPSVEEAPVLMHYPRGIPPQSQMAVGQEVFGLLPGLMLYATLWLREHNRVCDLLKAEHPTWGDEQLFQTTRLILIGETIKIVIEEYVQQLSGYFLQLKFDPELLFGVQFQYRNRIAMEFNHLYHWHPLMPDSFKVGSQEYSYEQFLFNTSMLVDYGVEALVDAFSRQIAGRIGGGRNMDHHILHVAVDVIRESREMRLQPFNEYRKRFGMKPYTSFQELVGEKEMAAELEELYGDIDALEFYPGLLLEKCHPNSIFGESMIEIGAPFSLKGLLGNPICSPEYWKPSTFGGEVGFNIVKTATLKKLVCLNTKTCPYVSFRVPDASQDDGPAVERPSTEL

This experiment concerns the target Prostaglandin G/H synthase 1 (Homo sapiens, UniProt P23219). Kind of experiment: Inhibition of COX1 assessed as TBX2 production in human whole blood. In kind it is functional, tissue-based.

Consider `Oc1ccc(/C=C/c2cc(O)cc(O)c2)cc1` [RESVERATROL], for which the IC50 turned out to be 2840 nM.
